Literature values, collected in PMC10191356, “Target-agnostic drug prediction integrated with medical record analysis uncovers differential associations of statins with increased survival in COVID-19 patients” (PLOS Computational Biology, 2023).

Details: cited from earlier work

CC(C)c1c(C(=O)Nc2ccccc2)c(-c2ccccc2)c(-c2ccc(F)cc2)n1CC[C@@H](O)C[C@@H](O)CC(=O)O [atorvastatin]
Active metabolites: Yes
